## Binding of CDR-mutated scFvs to a peptide of the spike HR2 region

Target peptide (SARS-CoV-2 spike, HR2 region): PDVDLGDISGINAS

Ab-14 is the parent antibody, in scFv form: VH, then a 15-residue (Gly4Ser)3 linker, then VL. The light chain is unchanged in all variants.
VH: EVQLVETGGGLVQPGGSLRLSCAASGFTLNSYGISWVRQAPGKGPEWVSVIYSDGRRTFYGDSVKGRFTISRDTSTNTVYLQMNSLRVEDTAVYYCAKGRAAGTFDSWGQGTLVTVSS
VL: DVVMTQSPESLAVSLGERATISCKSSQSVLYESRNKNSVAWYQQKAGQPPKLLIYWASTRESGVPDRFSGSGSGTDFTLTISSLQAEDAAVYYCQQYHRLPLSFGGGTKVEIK

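The parent was found by panning a naive human phage display library on the peptide. The variants were designed computationally from a first round of random CDR variants and then made and measured. Several design methods are mixed in this list. The scFvs were displayed on barcoded MATa yeast, the peptide on MATalpha yeast. The frequency of each diploid, read from paired DNA barcodes, reflects how well the two displayed proteins bind. The ratio of observed to expected reads was calibrated, replicate by replicate, on BCL2-family standards whose Kd was known from biolayer interferometry. Mating was done six times.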

Each variant is given by its three heavy chain CDRs, as the data file delimits them; those of the parent are GFTLNSYGIS, VIYSDGRRTFYGDSVK, GRAAGTFDS.
Affinities are written as log10 Kd with Kd in nM; a lower number is a better binder.
A mean of the replicates is given; it leaves out those without a signal.
"no signal" marks a missing value. The strain was present, yet no cells mated with the target were sequenced in any replicate, which points to weak or no binding.
Nonspecific signal, from three strains lacking the peptide, appeared in 1% of pairings of all heavy chain designs, centred on 2.08 (5% of these signals below 0.84); values are not corrected for it. For each scFv, signals with the empty controls are counted beside the result.

CDR-H1	CDR-H2	CDR-H3	mean, log10 nM	seen in	empty controls
GFTINEYGIS	VIYSDGRRTFYGDSVK	GRAAGTFDS	0.83	6 of 6	2 of 18
GFELNEYGIS	VIYSDGRRTFYGDSVK	GKSAGTFDS	0.30	6 of 6	0 of 18
GFDLEEYGIS	VIYADGQRTAYADSVK	GNVAGTFDV	-0.27	6 of 6	0 of 18
GFSLNSYGIS	VIYSDGRRTFYGDSVK	GRAAGTFDK	0.51	6 of 6	0 of 18
GFDLNEYGIS	VIYADGKRTAYADSVK	GQAAGTFDS	-0.32	6 of 6	0 of 18
GFDLEQYGIS	VIYADGVRTAYSQNSK	GDDGIALDI	no signal	0 of 6	0 of 18
GFDLDEYGIS	VIYADGMRTAYADDVK	GNVAGTFDV	-0.91	6 of 6	0 of 18
GFDLNSYGIS	VIYSDGRRTFYQDSVK	GQEAGTFDS	0.54	6 of 6	0 of 18
GFELNSYGIS	VIYSDGRRTFYDDSVK	GKAAGTFDS	0.24	6 of 6	0 of 18
IFTLDSYGIS	VIYSDGRRTFYGDSVK	GRAAGTALS	no signal	0 of 6	0 of 18
GFDLNSYGIS	VGYSDGRRTFYGDSVK	GRAAGWFNV	1.45	1 of 6	1 of 18
GFWLNDYGIS	VIYSDGRRTFYADAVK	GRTAGTFDS	1.20	5 of 6	0 of 18
GFTLNDYGIS	VIYSDGRRTQYIESVK	GRAAGTFDS	0.71	6 of 6	1 of 18
GFDLNEYGIS	VIYADGVRTSYADSVK	GENAGTFDM	0.49	6 of 6	0 of 18
GFNLNSYGIS	VIYSDGRRTFYADKVK	GQAAGTFDS	0.59	6 of 6	1 of 18
GFDLNSYGIS	VIYSDGRRTFYGDSVK	GQTAGTFDW	0.97	6 of 6	0 of 18
GFTLDSYGIS	VIYSDGRRTFYGDSVK	GRADGTALS	no signal	0 of 6	0 of 18
GFPLDEYGIS	VIYADGERTHYSNSVK	GTIGGTFFQ	2.05	3 of 6	0 of 18
GFDLNEYGIS	VIYADGRRTFYSDSVK	GENAGTFDM	-0.20	6 of 6	0 of 18
GFSLNSYGIS	VIYSDGRRTFYIDSVK	GQAAGTFDS	0.59	6 of 6	2 of 18
GFDLNEYGIS	VIYADGQRTFYADSVK	GSEAGTFDM	-0.85	6 of 6	0 of 18
GFDINEYGVS	VIYADGMRTYYDDKVK	GSNGDMLLD	1.93	1 of 6	1 of 18
GFNLNSYGIS	VIYSDGRRTFYVDDVK	GSEAGTFDS	-0.10	6 of 6	0 of 18
GFDLNSYGIS	VIYSDGRRTFYGDSVK	GRAAGHFWS	no signal	0 of 6	0 of 18
GFDLNEYGIS	VIYADGKRTFYSDSVK	GQTAGTFDV	-0.52	6 of 6	0 of 18
GFTLNSYGIS	VIYSDGRRTFYEDSVK	GDFAGTFDS	no signal	0 of 6	0 of 18
GQTLNSYGIS	VIYSDGRRTFYGDSVK	GLAAGTFDS	2.17	1 of 6	0 of 18
GFWLNDYGIS	VIYSDGRRTEYGDSVK	GRAAGTFDS	0.69	6 of 6	0 of 18
GFELNSYGIS	VIYADGRRTFYGDSVK	GQAAGTFDT	-0.56	6 of 6	0 of 18
GFTLNSYGIS	VIYSDGRRTFYMDAVK	GRVAGTFDS	1.52	1 of 6	0 of 18
GETLNSYGIS	VIYSDGRRTFYGDSVK	HRGAGTFDS	no signal	0 of 6	0 of 18
GFHLNSYGIS	VIYSDGERTAYGDSVK	GDEAGTFDW	0.16	2 of 6	0 of 18
GDSLAEYGIS	VIYADGERTAYKNSFK	GWVAGYFDV	no signal	0 of 6	0 of 18
GFTLNSYGIS	VIYSDGVRTFYGDSVK	GWTAGRFDS	no signal	0 of 6	0 of 18
GFSLNEYGIS	VIYSDGRRTFYGDAVK	GRAAGTFDS	-0.51	6 of 6	0 of 18
GFTLDSYGIS	VIYSDGKRTFYGDSVK	GRAAGTFDS	0.77	6 of 6	0 of 18
GFELNSYGIS	VIYADGRRTFYGDSVK	GTAAGTFDK	0.14	6 of 6	0 of 18
GFELNSYGIS	VIYSDGRRSFYGDSVK	GRQAGTFDS	1.40	4 of 6	0 of 18
GFDLNEYGIS	VIYADGRRTFYADSVK	GKHAGTFDQ	-0.33	6 of 6	0 of 18
GETLNSYGIS	VIYSDGRRTFYGDSVK	GDAAGTFDS	2.03	2 of 6	1 of 18
GFTLNTYGIS	VIYSDGHRTFYKDSVK	RHAAGTFDS	no signal	0 of 6	0 of 18
GFNLDEMGIS	VIYADGKRQVYADSVK	GHFGGNKLN	no signal	0 of 6	2 of 18
GFDLNEYGIS	VIYADGVRTVYADSVK	GNVAGTFDV	-0.61	6 of 6	0 of 18
GFDLNSYGIS	VIYSDGRRAFYGDSVK	GREAGTFDS	0.23	6 of 6	0 of 18
GFTLNEYGIS	VIYSDGRRTFYQDSVK	GRAAVTFDV	0.84	6 of 6	0 of 18
PFDLNSYGIS	VIYSDGRRTFYGDSVK	NRAAFWFNS	no signal	0 of 6	0 of 18
GFDLNEYGIS	VIYADGLRTSYQDSVK	GQLAGTFDQ	-0.47	6 of 6	0 of 18
GFDLDEYGIS	VIYADGMRTAYVDSVK	GEVAGTFDL	0.34	6 of 6	0 of 18
GFDLNEYGIS	VIYADGQRTAYIDSVK	GENAGTFDV	-0.12	6 of 6	0 of 18
GFELNSYGIS	VIYSDGRRTFYVDSVK	GRMAGTFDT	1.13	5 of 6	0 of 18
GFGLNQYGIS	VIYSDGRRTAYQDSVK	GRAAGTFDS	0.68	6 of 6	0 of 18
GFDLNEYGIS	VIYADGVRTAYADSVK	GETAGTFDV	-0.24	5 of 6	0 of 18
GFTLNSYGIS	VIYSDGRRTAYMDSVK	GRAAGTFDS	0.93	6 of 6	0 of 18
GFNLNLYGIS	VIYSDGRRTFYGNNVK	GRWQGTFDS	no signal	0 of 6	1 of 18
GFTLNSYGIS	VIYSDGRRTFYADSVK	GQVAGKFDS	no signal	0 of 6	0 of 18
GFDLNEYGIS	VIYADGRRTFYADSVK	GNQAGTFVS	-0.13	5 of 6	0 of 18
GFDLNEYGVS	VIYADGIRTSYTDSVK	GKVVDLLMA	no signal	0 of 6	1 of 18

A sequence measured in both rounds can read differently, since the two assays cover different ranges.
In the paper, a design with two or fewer of six values counts as a poor binder.

Data: MIT Lincoln Laboratory AlphaSeq set, Li et al. 2023, doi:10.1038/s41467-023-39022-2, as distributed in FLAb.